Results reported in ChEMBL document CHEMBL1821572, “Discovery of a novel series of selective HCN1 blockers” (Bioorg Med Chem Lett, 2011).

Organism: Homo sapiens
Experiment: Selectivity for human HCN1 over human HCN4

Compound: COc1ccccc1C(=O)NCC1(N2CCOCC2)CCCCC1
- Selectivity ratio: 10
